Results taken from US20260200946A1, “KRAS(G12V) INHIBITORS” (Ranok Therapeutics (Hangzhou) Co. Ltd., priority 2022, published 2026).

Amino acid sequences for entries named in this document (tags omitted). Residues count along the entry.
UniProt P01116, 1-188 isoform 2 G12V: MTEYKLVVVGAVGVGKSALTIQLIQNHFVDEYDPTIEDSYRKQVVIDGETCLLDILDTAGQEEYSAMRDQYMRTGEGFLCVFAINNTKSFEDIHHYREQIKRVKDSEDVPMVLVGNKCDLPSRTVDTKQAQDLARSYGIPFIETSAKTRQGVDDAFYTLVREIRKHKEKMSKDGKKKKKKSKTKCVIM

Experiments:
[1] = biological target: KRAS(G12V)/SOS1 (Homo sapiens, UniProt P01116, G12V); assay: KRAS(G12V)/SOS1 homogeneous time-resolved fluorescence (HTRF) assay; assay type: binding; details: read-out: HTRF of KRASG12V-SOS1; absence of GTP; 4° C., 3 hours; tested form: formate
Protocol: Binding of test compounds to KRAS(G12V) target protein, which in turn blocks KRAS(G12V) interaction with the SOS1 protein, was measured in the absences of GTP by homogeneous time-resolved fluorescence using the KRAS-G12V/SOS1 Binding Assay Kit (Cisbio, 63ADK000CB18PEH), following the manufacturer's instructions, except as noted. 3-fold serial dilutions of each test compound were prepared ranging from 20 µM to 1.02 nM. The test compound was mixed and incubated with reaction components, incubated in a sealed plate at 4° C. for 3 hours and fluorescence was measured using a PerkinElmer Envision plate reader. The KRAS(G12V)-SOS1 IC50 values (the concentration of 50% of the maximal inhibition) were calculated using GraphPad Prism 8.0 software.

[2] = system: SW620 cells; assay: Cancer cell line proliferation (CellTiter-Glo), SW620; assay type: cell-based; details: read-out: SW620, SW620 colorectal adenocarcinoma, homozygous G12V, 72 hr, tested form: formate
[3] = system: NCIH727 cells; assay: Cancer cell line proliferation (CellTiter-Glo), NCI-H727; details: read-out: NCI-H727, NCIH727 lung carcinoid, heterozygous G12V, 72 hr, tested form: formate

Structure (SMILES)	IC50 [1] [nM]	EC50 [2] [nM]	EC50 [3] [nM]
C#Cc1c(F)ccc2cc(O)cc(-c3nc(OC)c4c(N5CC6CCC(C5)N6C(=O)CC(C)(C)C)nc(OCC5(CN6CCC(F)CC6)CC5)nc4c3F)c12	< 100	100 to 1000	> 1000
C#Cc1c(F)ccc2cc(O)cc(-c3nc(OC)c4c(N5CC6CCC(C5)N6C(=O)CCC#N)nc(OCC5(CN6CCC(F)CC6)CC5)nc4c3F)c12	< 100	100 to 1000	100 to 1000
C#Cc1c(F)ccc2cc(O)cc(-c3nc(OC)c4c(N5CC6CCC(C5)N6C(=O)CC#N)nc(OCC5(CN6CCC(F)CC6)CC5)nc4c3F)c12	< 100	100 to 1000	100 to 1000
